Test: Plasma protein binding
Type: in vitro ADME
Details: equilibrium dialysis, mouse serum, 10 μM, 4 h, 37 °C

Substance 7-amino-4-methylcoumarin has a serum protein binding of 44%.
